In PubChem BioAssay AID485347 (National Center for Advancing Translational Sciences (NCATS), 2010) one finds potentiation data, which are given here for 51 compounds.

Sequences of proteins named here, by UniProt entry; tags and fusion partners are left off.
UniProt P14416, whole entry, looked up: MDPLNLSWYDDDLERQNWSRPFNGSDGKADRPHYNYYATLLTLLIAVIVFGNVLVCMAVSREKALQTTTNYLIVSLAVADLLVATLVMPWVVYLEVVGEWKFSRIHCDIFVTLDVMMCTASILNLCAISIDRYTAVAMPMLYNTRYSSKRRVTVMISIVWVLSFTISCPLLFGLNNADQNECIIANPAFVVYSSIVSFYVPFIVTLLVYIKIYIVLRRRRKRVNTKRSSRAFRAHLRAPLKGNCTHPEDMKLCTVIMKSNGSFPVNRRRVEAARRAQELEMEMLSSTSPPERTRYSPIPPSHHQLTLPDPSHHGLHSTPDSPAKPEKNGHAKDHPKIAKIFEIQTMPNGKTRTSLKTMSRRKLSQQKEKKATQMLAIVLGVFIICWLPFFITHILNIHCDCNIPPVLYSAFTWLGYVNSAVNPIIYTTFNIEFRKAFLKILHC

Only a part is listed here, and it is no random draw. Calls of active or inactive are those of the source.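 Rule for the calls: active = potentiation over 3 SD above the plate norm (cut at about 30% in these data); inactive = the rest.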

The target in this assay is D(2) dopamine receptor (Homo sapiens) (UniProt P14416). Put plainly: HTS Assay for Positive Allosteric Modulators of the Human D2 Dopamine Receptor: Primary Screen for Potentiators. Note: 0% is about no effect. The note with it: HEK293 T-REx D2, calcium flux, EC20 dopamine potentiation; at 10 µM; hits give high values. An excerpt:
NIH Chemical Genomics Center [NCGC] NIH Molecular Libraries Probe Centers Network [MLPCN] MLPCN Grant: NS064831-01 Assay Submitter (PI): David Sibley Dopamine receptors (DARs) are involved in the etiology and/or therapy of a number of neuropsychiatric and endocrine disorders. For instance, all receptor-based antiparkinsonian drugs work via stimulating the D2 DAR subtype whereas all FDA-approved antipsychotic agents are antagonists of this receptor. […] There are three different types of allosteric modulators that we are seeking, two of which will stimulate or augment receptor signaling, allosteric agonists and potentiators, while the third, allosteric antagonists, will attenuate receptor signaling. The present primary screening assay measures compound potentiation of an EC20 dopamine response by tracking calcium flux in a […], inducible Hek293 Trex D2 cell line.
Freshly passaged cells are plated in 1536 well black, clear bottom plates at a density of 4000 cells/well in 3 ul of complete media containing 1x tetracycline inducer. After an overnight incubation at 30 C in 5% CO2, cells are loaded with 2 ul of the no wash Calcium Assay Kit (ABD Bioquest) and incubated at room temperature for 30 to 90 minutes. A 10 cycle (1 second/cycle) baseline measurement is taken and then the FDSS online 1536 pintool delivers 23 nl of compound library (as well as dopamine controls) to the plate. The plate is measured for kinetically at 1 cycle/sec for 180 seconds and is considered to be the agonist portion of the assay (eg, compounds which activate a positive calcium response during this portion are flagged as potential agonists). Following the 180 second read, 1 ul of an EC20 of dopamine is delivered by an onboard pipette head. Measurements are taken kinetically for an additional 180 seconds.
For orientation: Calcium flux is commonly read through the fluorescence of an indicator in the cells.
As to `CC(=O)NC(SC(=S)N(CC(C)C)CC(C)C)C(Cl)(Cl)Cl` (stereo unspecified), the potentiation is inactive: -2.89%.
Take `c1ccc(-c2nn[nH]n2)c(-c2nn[nH]n2)c1`: the potentiation is inactive: 6.4%.
For the compound `CCOC(=O)NC(Sc1ccccc1)C(Cl)(Cl)Cl` (stereo unspecified), the potentiation is inactive: -5.16%.
Take `Cc1ccc(NP(=O)(Oc2cccc(C)c2)Oc2cccc(C)c2)nc1`: the potentiation was inactive: 12%.
Next, `O=C(NC1CCS(=O)(=O)C1)NP(=S)(Oc1ccccc1)Oc1ccccc1` (stereo unspecified): inactive: 12.8%; `O=C(OC1CN2CCC1CC2)c1cccc(Cl)c1` (stereo unspecified): inactive: -5.2%; `Nc1ccc([As](=O)(O)c2ccc([N+](=O)[O-])cc2)cc1`: inactive: -2.02%.
Turning to `C(Cc1nn[nH]n1)Cc1nn[nH]n1`, the potentiation was inactive: 10.8%.
To `O=[N+]([O-])c1ccc(O)c(/C=N/Nc2ccc([N+](=O)[O-])cc2[N+](=O)[O-])c1` belongs inactive: -3.05%.
In the case of `O=[N+]([O-])c1ncn(CCn2cnc([N+](=O)[O-])n2)n1`, the potentiation was inactive: 5.33%.
In the case of `CC(=O)NC(SC(=S)N(C)C)C(Cl)(Cl)Cl` (stereo unspecified), the potentiation was inactive: 0.0475%.
Next, `O=P(Nc1nc2ccccc2s1)(c1ccccc1)c1ccccc1`: inactive: -6.13%.
For the compound `O=P(Nc1ccccn1)(c1ccc(Br)cc1)c1ccc(Br)cc1`, the potentiation was inactive: -0.965%.
To `CN(C)C1(CNC(=O)c2ccc(Cl)c(S(N)(=O)=O)c2)CCCCC1` belongs inactive: -14.2%; to `c1nnnn1CCn1cnnn1`, inactive: -2.96%; to `CC(C)C(=O)NC(Sc1ccccc1)C(Cl)(Cl)Cl` (stereo unspecified), inactive: -7.54%.
With `O=P(Nc1nccs1)(c1ccccc1)c1ccccc1`, the potentiation was inactive: -3.24%.
As for `CC(C)/C=N\N=C(\N)N[N+](=O)[O-]`, the potentiation was inactive: 7.11%.
`CN(C(=O)Cc1ccc(Cl)c(Cl)c1)[C@@H]1CCCC[C@H]1N1CCCC1`: the potentiation was inactive: -9.16%.
As for `O=[As](O)(c1ccccc1Br)c1ccccc1Br`, the potentiation was inactive: 10%.
Consider `COc1ccccc1CNC(=O)COC(=O)C(O)(c1ccccc1)c1ccccc1`, for which the potentiation was inactive: -7.23%.
Take `Clc1n[nH]nc1-c1nn[nH][15n]1`: the potentiation was inactive: -2.56%.
As to `CC(C)(C)C(=O)NC(Sc1ncccn1)C(Cl)(Cl)Cl` (stereo unspecified), the potentiation was inactive: -5.13%.
Next, `O=P1(Nc2ccccn2)COc2ccccc2OC1`: inactive: 13.7%; `CCC1=CC2Cc3nc4ccc(Cl)cc4c(N)c3C(C1)C2` (stereo unspecified): inactive: -0.926%; `CCOP(=O)(NC(=NC(C)c1ccccc1)NC(C)c1ccccc1)OCC` (stereo unspecified): inactive: -0.207%.
Regarding `CCOP(=O)(Nc1ccc(C)cn1)OCC`, the potentiation was inactive: 3.34%.
As for `Nc1cccc([As](=O)(O)c2ccccc2)c1`, the potentiation was inactive: -1.44%.
For the compound `O=P1(Nc2ccc(Br)cn2)COc2ccccc2OC1`, the potentiation was inactive: -22.1%.
For `O=[As](O)(c1cccs1)c1cccs1`, the potentiation was inactive: 1.79%.
Next, `Cc1ccc(OCC(=O)OC2CN3CCC2CC3)cc1` (stereo unspecified): inactive: 4.05%.
For the compound `O=P1(Nc2ncccn2)COc2ccccc2OC1`, the potentiation is inactive: -2.66%.
To `CN(C)C1(CNC(=O)c2ccc(S(C)(=O)=O)cc2)CCCCC1` belongs inactive: -4.22%; to `O=C(/C=C/c1ccccc1)OC1CN2CCC1CC2` (stereo unspecified), inactive: -2.61%.
As for `Cc1nn(-c2ccccc2)c2c1P(=O)(N1CCOCC1)N(C)C(c1ccccc1)=N2` (stereo unspecified), the potentiation is inactive: -2.38%.
For `CC1CCC(C(C)C)C(OP(=O)(Nc2ccccn2)c2ccccc2)C1` (stereo unspecified), the potentiation is inactive: 9.63%.
As for `Cc1ccc(C(=O)OC2CN3CCC2CC3)cc1` (stereo unspecified), the potentiation is inactive: 9.1%.
To `N#CCCN(C(=O)COC(=O)C(O)(c1ccccc1)c1ccccc1)c1ccc(F)cc1` belongs inactive: -4.48%.
With `CN(C(=O)Cc1ccccc1)[C@@H]1CC[C@]2(CCCO2)C[C@H]1N1CCCC1`, the potentiation was inactive: 4.66%.
To `CCOP1(=S)c2c(C)nn(CCC#N)c2N=C(c2ccc(F)cc2)N1C` (stereo unspecified) belongs inactive: -7.35%; to `O=[N+]([O-])c1ccc2c(c1)nnn2O`, inactive: 1.35%.
Next, `NC(=O)Nc1ccc([As](=O)(O)O)cc1`: inactive: -5.03%; `Nc1ccccc1[As](=O)(O)c1ccccc1`: inactive: 0.306%; `O=C(O)COc1ccc([As](=O)(O)O)cc1[N+](=O)[O-]`: inactive: 10.1%.
In the case of `CCOP1(=S)c2c(C)nn(CCC#N)c2N=C(c2ccccc2F)N1C` (stereo unspecified), the potentiation was inactive: 4.51%.
As to `O=P(Nc1nccs1)(c1ccccc1)c1nc2ccccc2s1` (stereo unspecified), the potentiation was inactive: 9.65%.
For the compound `CS(=O)(=O)c1cc([N+](=O)[O-])c2no[n+]([O-])c2c1`, the potentiation is inactive: -11%.
Turning to `COc1cc(C2NCCC3(OCCO3)C2(C)C)cc(OC)c1OC` (stereo unspecified), the potentiation was inactive: -0.179%.
For `CCOP(=O)(Nc1cccc2ccccc12)OCC`, the potentiation is inactive: 2.71%.
In the case of `Nc1cccc2c([As](=O)(O)O)cccc12`, the potentiation is inactive: 14.1%.
`Cc1ccc(NCCc2c([N+](=O)[O-])cc([N+](=O)[O-])cc2[N+](=O)[O-])cc1`: the potentiation is inactive: 11.1%.
